This passage reports Kact results from patent publication US20190092802A1, “ANTAGONISTS OF NK1 RECEPTORS DERIVED FROM CARBOHYDRATES, PRODUCTION METHOD AND MEDICAL USE” (CONSEJO SUPERIOR DE INVESTIGACIONES CIENTIFICAS (CSIC), priority 2015, published 2019).

Amino acid sequences for entries named in this document (tags omitted).
UniProt P25103, whole entry, species assumed: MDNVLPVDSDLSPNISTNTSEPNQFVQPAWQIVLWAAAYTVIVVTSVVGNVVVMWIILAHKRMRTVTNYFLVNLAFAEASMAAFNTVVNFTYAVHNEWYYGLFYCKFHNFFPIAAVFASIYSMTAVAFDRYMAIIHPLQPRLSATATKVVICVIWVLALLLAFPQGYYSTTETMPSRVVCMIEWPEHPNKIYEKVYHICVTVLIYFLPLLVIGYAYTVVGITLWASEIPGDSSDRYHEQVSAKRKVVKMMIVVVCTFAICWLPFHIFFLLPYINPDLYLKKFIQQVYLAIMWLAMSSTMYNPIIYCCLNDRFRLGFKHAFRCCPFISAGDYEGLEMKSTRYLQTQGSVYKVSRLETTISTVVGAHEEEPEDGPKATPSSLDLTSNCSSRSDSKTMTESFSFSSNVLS

The test deals with NK1 receptor (Homo sapiens, UniProt P25103). Nature of the test: IP-One assay (SP-induced IP1 accumulation in CHO cells transfected with NK1). Type of test: cell-based. Further details: expressed in transfected cells; host or cells: CHO cells, transient electroporation. Particulars: SP as positive control (agonist).

Turning to substance P [SP], the Kact is listed as 1.64E−08±0.62 M.
